In ChEMBL document CHEMBL2439948, “Discovery of DF-461, a Potent Squalene Synthase Inhibitor” (ACS Med Chem Lett, 2013):

What was measured:
[1] = system: Rattus norvegicus; assay: Partition co-efficient, Kp in rats liver assessed per gram of tissue at 3 mg/kg, po administered as single dose measured at 1 hr
[2] = system: Rattus norvegicus; assay: Drug uptake in rats liver assessed per gram of tissue at 3 mg/kg, po administered as single dose measured at 1 hr
[3] = system: Rattus norvegicus; assay: Ratio of TAK475 ED50 to compound ED50 for inhibition of cholesterol synthesis in po dosed Wistar rat administered as single dose prior to [14C]mevalonolactone injection measured after 7 hrs by liquid scintillation counting; type: functional

Kp at 1 h [1]: 80
concentration at 1 h [2]: 2890 ng/g
SMILES: COc1cccc([C@H]2O[C@H](CC(=O)O)c3nnc(C(F)(F)F)n3-c3ccc(Cl)cc32)c1Cl
Ratio ED50 [3]: 30
